Experimental data from patent publication US7727980B2, “Tricyclic androgen receptor modulator compounds and methods” (priority 2001, dated 2010).

By UniProt entry, the sequences of proteins in these tests, tags left out. Where a name states a change or a piece, a line headed by the entry shows the natural chain unless it says otherwise.
UniProt P10275: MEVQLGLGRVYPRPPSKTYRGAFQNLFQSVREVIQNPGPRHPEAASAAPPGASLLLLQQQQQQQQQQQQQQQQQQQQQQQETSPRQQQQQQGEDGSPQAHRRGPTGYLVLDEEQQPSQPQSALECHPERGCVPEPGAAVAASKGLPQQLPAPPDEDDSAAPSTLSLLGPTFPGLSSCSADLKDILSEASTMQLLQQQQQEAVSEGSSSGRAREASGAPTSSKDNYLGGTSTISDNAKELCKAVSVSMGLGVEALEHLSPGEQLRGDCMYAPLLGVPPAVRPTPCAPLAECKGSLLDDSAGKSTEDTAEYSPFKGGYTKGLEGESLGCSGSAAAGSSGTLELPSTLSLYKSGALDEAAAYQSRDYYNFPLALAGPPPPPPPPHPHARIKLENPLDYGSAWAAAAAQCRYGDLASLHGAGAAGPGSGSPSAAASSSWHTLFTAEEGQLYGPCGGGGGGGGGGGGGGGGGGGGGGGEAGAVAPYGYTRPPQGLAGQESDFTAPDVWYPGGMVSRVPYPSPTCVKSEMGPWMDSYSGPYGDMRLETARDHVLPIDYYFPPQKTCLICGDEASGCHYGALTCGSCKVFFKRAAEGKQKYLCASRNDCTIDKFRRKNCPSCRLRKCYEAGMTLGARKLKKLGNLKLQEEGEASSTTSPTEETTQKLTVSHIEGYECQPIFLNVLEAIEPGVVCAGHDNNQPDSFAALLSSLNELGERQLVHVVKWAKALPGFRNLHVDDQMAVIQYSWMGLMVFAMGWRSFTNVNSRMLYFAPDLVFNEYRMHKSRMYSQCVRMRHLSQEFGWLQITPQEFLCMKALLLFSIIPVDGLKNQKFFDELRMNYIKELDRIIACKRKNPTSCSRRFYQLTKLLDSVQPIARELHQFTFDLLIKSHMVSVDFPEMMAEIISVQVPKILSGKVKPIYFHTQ

Biological target: human AR (Homo sapiens, UniProt P10275)
Experiment: Co-transfection assay, AR agonist activity, CV-1 cells
Assay type: cell-based
Design: expressed in transfected cells; host or cells: CV-1 cells (African green monkey kidney fibroblasts), transient transfection with pRShAR
Conditions: percent maximal response relative to reference agonist DHT

CC(C)(O)C(=O)Nc1ccc([N+](=O)[O-])c(C(F)(F)F)c1 [HO-Flut, 2-Hydroxyflutamide, reference compound]
AR Agonist CV-1 Cells Efficacy (%): na (na = not active (i.e. efficacy of <20 and potency of >10,000))
